Results from paper PMC6021390, “A promiscuous cytochrome P450 aromatic O-demethylase for lignin bioconversion” (Nature Communications, 2018).

System: reduced nicotinamide adenine dinucleotide
Assay: purified protein, by the assay type
Settings: pH 7.5; 25.0 °C

## GcoB (Amycolatopsis sp. ATCC 39116)
  Km: 16 µM
